Assays:
Type in all cases: cell-based
[1] = tested on: HCC2935 lung adenocarcinoma cell line; assay: MTT assay, growth inhibition of HCC2935 cell line; settings: MTT assay after treatment for 72 h
Description: (§1) In one example embodiment, eight lung adenocarcinoma cell lines (i.e. H23, H358, HCC827, H1650, H1975, HCC2935, HCC4006, and A549), obtained from ATCC, are used to assess the in vitro efficacies of PEG-BCT-100 and ADI. The inhibition ratio (IR) and the half maximal inhibitory concentration (IC50) values are determined by a MTT assay.

[2] = tested on: lung adenocarcinoma cell lines (H23, H358, HCC827, H1650, H1975, HCC2935, HCC4006, and A549); assay: MTT assay on the panel of eight lung adenocarcinoma cell lines; settings: all tested cell lines; MTT assay after treatment for 72 h
Description: as §1

[3] = tested on: H1975 lung adenocarcinoma cell line; assay: MTT assay, growth inhibition of H1975 cell line; settings: MTT assay after treatment for 72 h
Description: as §1

[4] = tested on: H1650 lung adenocarcinoma cell line; assay: MTT assay, growth inhibition of H1650 cell line; settings: MTT assay after treatment for 72 h
Description: as §1

[5] = tested on: HCC4006 lung adenocarcinoma cell line; assay: MTT assay, growth inhibition of HCC4006 cell line; settings: MTT assay after treatment for 72 h
Description: as §1

**Q.** With arginine deiminase [ADI] as the substance, how does the “cytotoxicity (cell viability)” value [1] read?
**A.** The value was “less cytotoxic effects”.

**Q.** What about the “cytotoxicity (cell viability)” value [2] of the same substance?
**A.** The value was “induces cytotoxicity in all cell lines”.

**Q.** What about the “cytotoxicity (cell viability)” value [3] of the same substance?
**A.** The value was “less cytotoxic effects”.

**Q.** And the “cytotoxicity (cell viability)” value [4]?
**A.** The value was “less cytotoxic effects”.

**Q.** What about the “cytotoxicity (cell viability)” value [5] of the same substance?
**A.** Its value is “less cytotoxic effects”.

— US20180271960A1, “METHOD TO TREAT CANCER USING ARGININE DELPETOR AND ORNITHINE DECARBOXYLASE (ODC) INHIBITOR” (Bio-Cancer Treatment International Ltd., priority 2015, published 2018)
